Patent US20250368649A1, “TETRAHYDROPYRIDOPYRIMIDINE PAN-KRAS INHIBITORS” (Mirati Therapeutics, Inc., priority 2022, published 2025)

By UniProt entry, the sequences of proteins in these tests, tags left out. Where a name states a change or a piece, a line headed by the entry shows the natural chain unless it says otherwise.
UniProt P01116: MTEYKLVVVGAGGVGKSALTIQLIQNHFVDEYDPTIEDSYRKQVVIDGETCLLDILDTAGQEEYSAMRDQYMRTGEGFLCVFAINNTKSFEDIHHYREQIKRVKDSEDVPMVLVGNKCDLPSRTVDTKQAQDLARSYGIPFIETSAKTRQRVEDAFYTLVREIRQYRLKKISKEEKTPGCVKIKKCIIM

Columns and labels:
Experiment in all cases: biochemical
KRas G12R = KRas G12R (Homo sapiens, UniProt P01116, G12R); settings: Binding to KRas (IC50 nM) G12R, TR-FRET displacement
KRas G12D = KRas G12D (Homo sapiens, UniProt P01116, G12D); settings: Binding to KRas (IC50 nM) G12D, TR-FRET displacement
KRas G12V = KRas G12V (Homo sapiens, UniProt P01116, G12V); settings: Binding to KRas (IC50 nM) G12V, TR-FRET displacement

Structure (SMILES)	IC50 (KRas G12R) [nM]	IC50 (KRas G12D) [nM]	IC50 (KRas G12V) [nM]
CCc1c(F)ccc2cc(O)cc(N3CCc4c(nc(OC[C@@]56CCCN5C[C@H](F)C6)nc4N4CCCn5nc(C(=O)N6CCC7CC7C6)cc5C4)C3)c12 (stereo partly drawn) [Example 332, 3-azabicyclo[4.1.0]heptan-3-yl(5-(7-(8-ethyl-7-fluoro-3-hydroxynaphthalen-1-yl)-2-(((2R,7aS)-2-fluorohexahydro-1H-pyrrolizin-7a-yl)methoxy)-5,6,7,8-tetrahydropyrido[3,4-d]pyrimidin-4-yl)-5,6,7,8-tetrahydro-4H-pyrazolo[1,5-a][1,4]diazepin-2-yl)methanone]	< 2	2	< 2
CCc1c(F)ccc2cc(O)cc(N3CCc4c(nc(OC[C@@]56CCCN5C[C@H](F)C6)nc4N4CCCn5nc(C(=O)N6CC7CCC(C6)O7)cc5C4)C3)c12 [Example 333, 8-oxa-3-azabicyclo[3.2.1]octan-3-yl(5-(7-(8-ethyl-7-fluoro-3-hydroxynaphthalen-1-yl)-2-(((2R,7aS)-2-fluorohexahydro-1H-pyrrolizin-7a-yl)methoxy)-5,6,7,8-tetrahydropyrido[3,4-d]pyrimidin-4-yl)-5,6,7,8-tetrahydro-4H-pyrazolo[1,5-a][1,4]diazepin-2-yl)methanone]	< 2	< 2	< 2
CCc1c(F)ccc2cc(O)cc(N3CCc4c(nc(OC[C@@]56CCCN5C[C@H](F)C6)nc4N4CCCn5nc(C(=O)N6CCC7CC6CO7)cc5C4)C3)c12 (stereo partly drawn) [Example 337, 6-oxa-2-azabicyclo[3.2.1]octan-2-yl(5-(7-(8-ethyl-7-fluoro-3-hydroxynaphthalen-1-yl)-2-(((2R,7aS)-2-fluorohexahydro-1H-pyrrolizin-7a-yl)methoxy)-5,6,7,8-tetrahydropyrido[3,4-d]pyrimidin-4-yl)-5,6,7,8-tetrahydro-4H-pyrazolo[1,5-a][1,4]diazepin-2-yl)methanone]	< 2	< 2	< 2
CCc1c(F)ccc2cc(O)cc(N3CCc4c(nc(OC[C@@]56CCCN5C[C@H](F)C6)nc4N4CCCn5nc(C(=O)NC)c(F)c5C4)C3)c12 [Example 362, 5-(7-(8-ethyl-7-fluoro-3-hydroxynaphthalen-1-yl)-2-(((2R,7aS)-2-fluorohexahydro-1H-pyrrolizin-7a-yl)methoxy)-5,6,7,8-tetrahydropyrido[3,4-d]pyrimidin-4-yl)-3-fluoro-N-methyl-5,6,7,8-tetrahydro-4H-pyrazolo[1,5-a][1,4]diazepine-2-carboxamide]	< 2	< 2	< 2
CCc1c(F)ccc2cc(O)cc(N3CCc4c(nc(OC[C@@]56CCCN5C[C@H](F)C6)nc4N4CCCn5nc(C(=O)NC(C)C)c(F)c5C4)C3)c12 [Example 366, 5-(7-(8-ethyl-7-fluoro-3-hydroxynaphthalen-1-yl)-2-(((2R,7aS)-2-fluorohexahydro-1H-pyrrolizin-7a-yl)methoxy)-5,6,7,8-tetrahydropyrido[3,4-d]pyrimidin-4-yl)-3-fluoro-N-isopropyl-5,6,7,8-tetrahydro-4H-pyrazolo[1,5-a][1,4]diazepine-2-carboxamide]	< 2	< 2	< 2
CCc1c(F)ccc2cc(O)cc(N3CCc4c(nc(OC[C@@]56CCCN5C[C@H](F)C6)nc4N4CCCn5nc(NC)c(Br)c5C4)C3)c12 [Example 394, 4-(4-(3-bromo-2-(methylamino)-7,8-dihydro-4H-pyrazolo[1,5-a][1,4]diazepin-5(6H)-yl)-2-(((2R,7aS)-2-fluorohexahydro-1H-pyrrolizin-7a-yl)methoxy)-5,6-dihydropyrido[3,4-d]pyrimidin-7(8H)-yl)-5-ethyl-6-fluoronaphthalen-2-ol]	< 2	2	2
CCc1c(F)ccc2cc(O)cc(N3CCc4c(nc(OC[C@@]56CCCN5C[C@H](F)C6)nc4N4CCCn5nc(C(=O)NC)cc5C4)C3)c12 [Example 400, 5-(7-(8-ethyl-7-fluoro-3-hydroxynaphthalen-1-yl)-2-(((2R,7aS)-2-fluorohexahydro-1H-pyrrolizin-7a-yl)methoxy)-5,6,7,8-tetrahydropyrido[3,4-d]pyrimidin-4-yl)-N-methyl-5,6,7,8-tetrahydro-4H-pyrazolo[1,5-a][1,4]diazepine-2-carboxamide]	< 2	< 2	< 2
CCc1c(F)ccc2cc(O)cc(N3CCc4c(nc(OC[C@@]56CCCN5C[C@H](F)C6)nc4N4CCCn5nc(C(=O)N6CCOCC6)c(Cl)c5C4)C3)c12 [Example 413, (3-chloro-5-(7-(8-ethyl-7-fluoro-3-hydroxynaphthalen-1-yl)-2-(((2R,7aS)-2-fluorohexahydro-1H-pyrrolizin-7a-yl)methoxy)-5,6,7,8-tetrahydropyrido[3,4-d]pyrimidin-4-yl)-5,6,7,8-tetrahydro-4H-pyrazolo[1,5-a][1,4]diazepin-2-yl)(morpholino)methanone]	< 2	< 2	< 2
CCc1c(F)ccc2cc(O)cc(N3CCc4c(nc(N5CC(N(C)C)C5)nc4N4CCCn5nc(C(=O)N(C)C)cc5C4)C3)c12 [Example 432, 5-(2-(3-(dimethylamino)azetidin-1-yl)-7-(8-ethyl-7-fluoro-3-hydroxynaphthalen-1-yl)-5,6,7,8-tetrahydropyrido[3,4-d]pyrimidin-4-yl)-N,N-dimethyl-5,6,7,8-tetrahydro-4H-pyrazolo[1,5-a][1,4]diazepine-2-carboxamide]	592	201	316
CCc1c(F)ccc2cc(O)cc(N3CCc4c(nc(N5CC(N(C)C)C5)nc4N4CCC[C@@](C)(O)C4)C3)c12 [Example 434, (R)-1-(2-(3-(dimethylamino)azetidin-1-yl)-7-(8-ethyl-7-fluoro-3-hydroxynaphthalen-1-yl) -5,6,7,8-tetrahydropyrido [3,4-d]pyrimidin-4-yl)-3-methylpiperidin-3-ol]	498	397	342
C[C@@H]1C[C@@H]1c1c(Cl)cc2[nH]ncc2c1N1CCc2c(nc(OC[C@@]34CCCN3C[C@H](F)C4)nc2N2CCC[C@]3(C2)NC(=O)NC3=O)C1 [Example 448, (R)-7-(7-(6-chloro-5-((1S,2R)-2-methylcyclopropyl)-1H-indazol-4-yl)-2-(((2R,7aS)-2-fluorohexahydro-1H-pyrrolizin-7a-yl)methoxy)-5,6,7,8-tetrahydropyrido[3,4-d]pyrimidin-4-yl)-1,3,7-triazaspiro[4.5]decane-2,4-dione]	2	3	< 2
O=S1(=O)CCC2(CCCN(c3nc(OC[C@@]45CCCN4C[C@H](F)C5)nc4c3CCN(c3cc(O)cc5ccc(F)c(Cl)c35)C4)C2)C1 (stereo partly drawn) [Example 465, 7-(7-(8-chloro-7-fluoro-3-hydroxynaphthalen-1-yl)-2-(((2R,7aS)-2-fluorohexahydro-1H-pyrrolizin-7a-yl)methoxy)-5,6,7,8-tetrahydropyrido[3,4-d]pyrimidin-4-yl)-2-thia-7-azaspiro[4.5]decane 2,2-dioxide]	< 2	< 2	< 2
